Measured values as given in patent publication US20250049798A1, “WEE1 PROTEIN KINASE DEGRADATION AGENT AND USE THEREOF” (HANGZHOU GLUBIO PHARMACEUTICAL CO. LTD., priority 2021, published 2025).

Amino acid sequences for entries named in this document (tags omitted).
UniProt P30291, whole entry: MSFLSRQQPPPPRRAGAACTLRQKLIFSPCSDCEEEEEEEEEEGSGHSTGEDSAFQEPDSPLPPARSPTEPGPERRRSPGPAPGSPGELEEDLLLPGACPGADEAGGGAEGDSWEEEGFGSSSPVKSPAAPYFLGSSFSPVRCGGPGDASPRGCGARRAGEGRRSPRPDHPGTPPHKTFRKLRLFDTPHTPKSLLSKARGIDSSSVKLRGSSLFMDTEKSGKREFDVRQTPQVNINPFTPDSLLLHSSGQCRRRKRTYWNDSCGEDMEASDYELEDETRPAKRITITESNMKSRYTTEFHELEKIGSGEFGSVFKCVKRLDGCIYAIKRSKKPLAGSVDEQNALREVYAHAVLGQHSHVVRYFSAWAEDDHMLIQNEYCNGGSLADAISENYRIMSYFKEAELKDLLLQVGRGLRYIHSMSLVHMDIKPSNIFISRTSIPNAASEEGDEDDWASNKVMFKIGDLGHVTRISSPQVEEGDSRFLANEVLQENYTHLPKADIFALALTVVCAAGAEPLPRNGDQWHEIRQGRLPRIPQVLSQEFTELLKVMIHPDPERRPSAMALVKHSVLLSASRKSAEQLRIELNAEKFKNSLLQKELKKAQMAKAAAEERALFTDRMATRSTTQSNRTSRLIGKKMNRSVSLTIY

Experiments:
NCI-H1048 cells = assay: NCI-H1048 cell proliferation assay (CTG assay); details: read-out: CTG cellular assay_H1048: IC50, 120 hours
HiBiT tagged Wee1 = HiBiT tagged Wee1 (Homo sapiens, UniProt P30291); assay: Wee1 protein degradation assay (HiBiT assay); format: cell-based; details: engineered HT-1080 cells, 20 hours; for HiBiT Wee1: Dmax: maximum percentage of Wee1 degradation; for DC50: read-out: HiBIT Wee1: DC50

SMILES | IC50 (NCI-H1048 cells) | HiBiT Wee1: Dmax (HiBiT tagged Wee1) | DC50 (HiBiT tagged Wee1)
C=CCn1c(=O)c2cnc(Nc3ccc(N4CCN(CCCc5cccc6c5n(C)c(=O)n6C5CCC(=O)NC5=O)CC4)cc3)nc2n1-c1cccc(C(C)(C)O)n1 (stereo not drawn) | 0.025 to 0.1 µM | B (“B” represents 50% ≤ Dmax < 75% in the HiBiT assay) | < 0.1 µM
C=CCn1c(=O)c2cnc(Nc3ccc(N4CCN(CC5CCN(c6ccc(NC7CCC(=O)NC7=O)cc6)CC5)CC4)cc3)nc2n1-c1cccc(C(C)(C)O)n1 (stereo not drawn) | < 0.025 µM | B (“B” represents 50% ≤ Dmax < 75% in the HiBiT assay) | < 0.1 µM
